Consider one compound from ChEMBL document CHEMBL4428056 (J Med Chem, 2016).

Chains of the proteins cited; added tags and fusions are not shown.
UniProt P11762, whole entry: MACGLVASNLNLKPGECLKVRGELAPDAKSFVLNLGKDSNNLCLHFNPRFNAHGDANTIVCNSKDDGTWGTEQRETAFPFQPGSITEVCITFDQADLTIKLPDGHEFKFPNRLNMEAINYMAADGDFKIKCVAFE

Structures are written as SMILES.

Assay [1] addresses Galectin-9 (Homo sapiens, UniProt O00182). The assay can be described thus: Competitive binding affinity to recombinant human galectin-9 C-terminal after 5 mins in presence of fluorescent probe 3,3'-dideoxy-3-[4-(fluorescein-5-yl-carbonylaminomethyl)-1H-1,2,3-triazol-1-yl]-3'-(3,5-dimethoxy-benzamido)-1,1'-sulfanediyl-di-beta-D-galactopyranoside by fluorescence polarization assay. (In general: Polarisation of emitted light reports the rotation of a fluorescent probe.)

For assay [2], the target named is Galectin-1 (Rattus norvegicus, UniProt P11762). Briefly: Competitive binding affinity to rat galectin-1 after 5 mins in presence of fluorescent probe by fluorescence polarization assay.

As usually defined, the Kd is a measure of binding affinity in units of concentration. Take `OC[C@H]1O[C@@H](S[C@@H]2O[C@H](CO)[C@H](O)[C@H](O)[C@H]2O)[C@H](O)[C@@H](O)[C@H]1O` [THIODIGALACTOSIDE]: the Kd in assay [1] was determined as 42 µM; in assay [2], 24 µM.
